Laboratory results from patent US9636379B2, “Compositions and methods for treating pruritus” (Washington University, priority 2007, dated 2017).

Target: T1, NMBR (Mus musculus, UniProt O54799)
T1 construct: NMBR is expressed in the most superficial layer of the dorsal spinal cord; endogenous in cells; host or cells: living wild-type mice, spinal cord (intrathecal injection)
T1 sequence (O54799 1-390): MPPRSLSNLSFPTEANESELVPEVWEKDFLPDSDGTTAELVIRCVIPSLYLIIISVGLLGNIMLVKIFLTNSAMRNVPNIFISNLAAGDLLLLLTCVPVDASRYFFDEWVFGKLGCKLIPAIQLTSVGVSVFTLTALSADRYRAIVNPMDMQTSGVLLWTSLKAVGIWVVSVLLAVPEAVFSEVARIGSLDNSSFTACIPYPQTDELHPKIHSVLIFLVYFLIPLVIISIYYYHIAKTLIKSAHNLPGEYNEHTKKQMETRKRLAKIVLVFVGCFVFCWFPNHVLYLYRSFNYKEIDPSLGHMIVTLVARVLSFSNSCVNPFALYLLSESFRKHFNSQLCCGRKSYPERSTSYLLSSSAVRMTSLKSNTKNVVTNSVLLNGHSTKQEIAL
Design: species or system mice
Conditions: in vivo

neuromedin B [NMB]
scratching behaviors after i.t. NMB: induced robust scratching behaviors
